## scFv variants of Ab-14 (light chain) against a SARS-CoV-2 spike peptide

Values reported by Li et al. 2023, doi:10.1038/s41467-023-39022-2 (FLAb copy).

Antigen: PDVDLGDISGINAS, a 14-residue peptide of the SARS-CoV-2 spike HR2 region.

The variants keep the heavy chain, the linker and the frameworks of Ab-14 (scFv order VH, a 15-residue (Gly4Ser)3 linker, VL).
VH: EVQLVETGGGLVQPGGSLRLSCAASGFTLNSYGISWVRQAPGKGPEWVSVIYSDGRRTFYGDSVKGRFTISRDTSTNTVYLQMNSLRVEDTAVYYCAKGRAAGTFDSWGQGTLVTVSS
VL: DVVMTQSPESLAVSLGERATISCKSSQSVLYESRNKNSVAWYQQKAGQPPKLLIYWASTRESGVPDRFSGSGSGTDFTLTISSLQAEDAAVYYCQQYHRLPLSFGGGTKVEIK

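These sequences belong to a second round, designed from the earlier measurements on random variants of the parent. Group labels follow the data file (En: ensemble of fine-tuned language models; GP: Gaussian process model; HC: hill climbing; Gen: genetic algorithm; Gibbs: Gibbs sampling; a sequence that several methods proposed may carry one label only). In AlphaSeq, yeast of one mating type display the scFv and yeast of the other type display the target. Mating (16 h, 30 °C) was followed by selection of diploids and sequencing of their barcodes. Scores were corrected for input abundance and mapped to Kd with protein pairs of known affinity run in the same pool. There are six technical replicates.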

Variants are written as CDR1, CDR2 and CDR3 of the light chain (limits as in the source). Parent: KSSQSVLYESRNKNSVA, WASTRES, QQYHRLPLS. Variants here have more than six changes. The read-out is the apparent dissociation constant on a log10 scale (nM): the lower, the stronger. A mean of the replicates is given; it leaves out those without a signal. An entry "nd" has no value in the source: the pair was not observed among the diploids in that replicate. This suggests poor binding but is not conclusive. Entries are sorted by rising average, undetected variants last.

Variant KLSQSVLYEPTNSQSVA | DASTRYS | QQYHRLPLS [GP_Gibbs] gave 0.04, 0.05, -0.12, -0.13, -0.16, 0.03 (mean -0.05). Variant KVSMSWMQEERNKNSVA | QASQREQ | QQYHRLPLS [GP_Gibbs] gave 0.18, 0.14, 0.11, -0.06, -0.03, 0.62 (mean 0.16). With QIYDATGMESRNKNPIA | DVSTRPS | QQYDRLPLS [En_HC] the result was 0.24, 0.24, 0.02, 0.21, 0.07, 0.21 (mean 0.17). For KQDQSDGGEQRNKNSVA | SASTRCE | QQYHRLPLS [GP_Gibbs], the assay gave 0.03, 0.53, 0.25, -0.06, 0.24, 0.21 (mean 0.20). Variant KWSQSVLMESMLVNSVA | NASQRES | QQYHRLPLS [GP_Gibbs] gave 0.12, 0.30, 0.34, 0.14, -0.09, 0.61 (mean 0.24). Variant TLSQLMDMTSKNVNSVA | DLTTRGN | QQYHRLPLS [En_HC] showed 0.34, 0.36, 0.35, 0.02, 0.20, 0.48 (mean 0.29).

Variant KSSGSVQGEDRNSNSVA | NASQRES | QQYHRLPLS [GP_Gibbs] showed 0.53, 0.30, 0.53, 0.39, 0.41, 0.52 (mean 0.45). With KIGQTLNQLMHQINNVA | DLVMREK | QQYHRLPLS [En_Gen] the result was 1.09, 0.39, 0.52, 0.34, 0.30, 0.36 (mean 0.50). Variant TISQLMLMESRNKNNVA | GESTRES | QCYHRLPLS [En_HC] gave 0.54, 0.84, 0.25, 0.33, 0.40, 0.86 (mean 0.54). Variant ALSIQQQEPTGIVNSIA | QTSLREH | QQYHHLPLC [En_Gibbs] gave 0.60, 0.72, 0.44, 0.15, 0.50, 0.97 (mean 0.56). With TIDDEEPSEGLKWNSIA | GVATRLQ | QQYHRLPLI [En_Gibbs] the result was 0.57, 0.97, 0.31, 0.53, 0.61, 0.81 (mean 0.63). Variant NLKEMEGTNQTKHGNIA | SVDQRMS | QQYFRLPLI [En_Gibbs] showed 0.74, 0.83, 0.46, 0.59, 0.67, 0.73 (mean 0.67).

With MISQLMNMGQFAINSVA | QASIRNY | QQYDRLPLM [En_Gen] the result was 1.06, 0.63, 0.67, 0.43, 0.91, 0.80 (mean 0.75). Variant KLSQSVWYESRLKNSVA | NASTRMY | QQYHRLPLA [GP_Gibbs] gave 0.81, 0.76, 0.65, 0.98, 0.73, 0.70 (mean 0.77). Variant KMFQSWGMEQRNVNSVA | HASQRLD | QQYHRLPLS [GP_Gibbs] showed 1.23, 0.95, 0.14, 0.85, 0.40, 1.13 (mean 0.78). Variant MISDLMLYGSRNKNPIA | NAETREY | QQYHRLPLE [En_HC] gave 1.71, 0.79, 0.77, 0.59, 0.75, 0.33 (mean 0.82). With QIYQAMHTLMQVKNNIA | DVTNRNQ | QQYHRLPLS [En_Gen] the result was 0.85, 0.86, 0.72, 1.25, 0.75, 0.62 (mean 0.84). With QLSISMLHESINKHSVA | EVRTRES | QQYDRLPLS [En_HC] the result was 0.78, 0.78, 0.62, 0.96, 0.64, 1.31 (mean 0.85).

For KVTTNLEHQAQRDNAIA | EADMVAA | QDYMRLPLI [En_Gibbs], the assay gave 0.88, 0.85, 0.76, 0.98, 0.88, 0.98 (mean 0.89). With IVSQLMLWGWHAKNSIA | EAQMRLN | QQYDRLPLF [En_Gen] the result was nd, 0.23, 0.59, 2.52, 0.53, 0.68 (mean 0.91). Variant MIKEENIEVGNYQNSIA | DGASTMA | QQYYRLPLA [En_Gibbs] gave 1.18, 1.35, 0.85, 0.57, 0.73, 1.13 (mean 0.97). For KMSGNLTDQENIKHSIA | EQVLAME | QQYMKLPLD [En_Gibbs], the assay gave 0.99, 0.95, 1.55, nd, nd, nd (mean 1.16). Variant KLNLKMRVNGERCYNIA | DSSTRLQ | QDYHRLPLI [En_Gibbs] showed 1.09, 1.88, 1.01, 1.39, 1.27, 1.18 (mean 1.30). For MLSQMWALGQKVKNSVA | QASMRFN | QQYDRLPLE [En_Gen], the assay gave 1.24, 1.97, 2.20, 0.68, 1.29, 2.05 (mean 1.57).

With KISQTFNVGTKNKNSLA | EMNTREF | QDYHRLPLS [En_HC] the result was 1.70, 1.76, 1.31, 2.53, 1.30, 1.79 (mean 1.73). With KLSQVTNSEHKVENSIA | EMVTREK | QQYDRLPLS [En_HC] the result was 1.64, 1.47, 2.33, 1.50, 2.07, 2.20 (mean 1.87). With MVSQLMVWGMHARNSIA | EAQTRIN | QQYDRLPLV [En_Gen] the result was 1.13, nd, 2.59, 2.17, nd, nd (mean 1.96). With KMMLSLGESKQSEDNVA | NMRVSVA | QQYDHLPLT [En_Gibbs] the result was 2.07, nd, 1.68, nd, nd, 2.35 (mean 2.03). For HLQEQSFVGQKDKWSVA | ESECKYN | QQYAQLPLM [En_Gibbs], the assay gave 2.25, 1.71, 1.70, 2.11, 2.50, 2.14 (mean 2.07). Variant TIGQVMHYESRNKNSVA | QTSIREE | QDYDRLPLS [En_HC] gave 2.57, 2.00, 2.38, 1.80, 2.91, 2.47 (mean 2.35).

With QLYEMLYELSGKTHSVA | DNSTRGE | QQYFRLPLE [En_Gen] the result was nd, nd, nd, nd, nd, 2.72. Variant ILYDSVGNLSRNKNSVA | DNSTRES | QQYDRLPLS [En_HC] showed nd, nd, 2.85, nd, nd, nd. With HLSHMSGVESVKHNSVA | ENSTREQ | QQYDRLPLA [En_Gen] the result was nd, nd, nd, nd, nd, 3.37. Variant IVSQLMLWGYTAKNSIA | EAQTRVN | QQYDRLPLF [En_Gen] gave nd, nd, nd, nd, nd, nd.

The opening 2 entries, copied out:

{"CDR-L1": "KLSQSVLYEPTNSQSVA", "CDR-L2": "DASTRYS", "CDR-L3": "QQYHRLPLS", "group": "GP_Gibbs", "log10 Kd (nM) by replicate": "0.04, 0.05, -0.12, -0.13, -0.16, 0.03", "log10 Kd (nM), mean": "-0.05"}
{"CDR-L1": "KVSMSWMQEERNKNSVA", "CDR-L2": "QASQREQ", "CDR-L3": "QQYHRLPLS", "group": "GP_Gibbs", "log10 Kd (nM) by replicate": "0.18, 0.14, 0.11, -0.06, -0.03, 0.62", "log10 Kd (nM), mean": "0.16"}

A sequence measured in both rounds can read differently, since the two assays cover different ranges. Of ten entries with the parent sequence, four were seen in most replicates (averages 0.34 to 2.37), three in one and three in none, so single entries are noisy. Three control strains display no target. For all light chain designs, 4% of the pairings with them gave a signal, with a median of 2.64 and one signal in twenty below 1.59, so weak values seen in few replicates may be background. The authors' rule: three or more of the six replicates give a measured affinity, fewer mean a poor binder.